From PMC7933434, “Entropy-driven binding of gut bacterial β-glucuronidase inhibitors ameliorates irinotecan-induced toxicity” (Communications Biology, 2021) come the findings set out here.

Sequences of proteins named here, by UniProt entry; tags and fusion partners are left off. A change or cut given only in a name is not applied to a line headed by its entry. Residues count along the entry.
UniProt P05804: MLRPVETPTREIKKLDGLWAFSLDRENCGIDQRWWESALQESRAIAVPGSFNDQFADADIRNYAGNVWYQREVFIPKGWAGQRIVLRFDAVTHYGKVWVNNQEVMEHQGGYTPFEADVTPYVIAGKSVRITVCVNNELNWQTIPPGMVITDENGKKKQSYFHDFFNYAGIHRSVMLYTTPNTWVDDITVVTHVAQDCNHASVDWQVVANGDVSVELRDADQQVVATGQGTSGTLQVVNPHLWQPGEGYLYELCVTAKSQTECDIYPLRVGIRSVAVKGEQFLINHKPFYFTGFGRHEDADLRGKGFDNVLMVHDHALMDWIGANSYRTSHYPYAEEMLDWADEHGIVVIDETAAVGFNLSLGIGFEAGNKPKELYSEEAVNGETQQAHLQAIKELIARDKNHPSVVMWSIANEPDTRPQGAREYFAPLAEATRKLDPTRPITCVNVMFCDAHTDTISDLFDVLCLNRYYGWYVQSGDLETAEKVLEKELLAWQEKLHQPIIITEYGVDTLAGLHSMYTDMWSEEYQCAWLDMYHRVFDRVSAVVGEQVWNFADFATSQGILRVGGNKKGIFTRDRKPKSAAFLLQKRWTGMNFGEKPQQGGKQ
UniProt Q9AHJ8, 1-598: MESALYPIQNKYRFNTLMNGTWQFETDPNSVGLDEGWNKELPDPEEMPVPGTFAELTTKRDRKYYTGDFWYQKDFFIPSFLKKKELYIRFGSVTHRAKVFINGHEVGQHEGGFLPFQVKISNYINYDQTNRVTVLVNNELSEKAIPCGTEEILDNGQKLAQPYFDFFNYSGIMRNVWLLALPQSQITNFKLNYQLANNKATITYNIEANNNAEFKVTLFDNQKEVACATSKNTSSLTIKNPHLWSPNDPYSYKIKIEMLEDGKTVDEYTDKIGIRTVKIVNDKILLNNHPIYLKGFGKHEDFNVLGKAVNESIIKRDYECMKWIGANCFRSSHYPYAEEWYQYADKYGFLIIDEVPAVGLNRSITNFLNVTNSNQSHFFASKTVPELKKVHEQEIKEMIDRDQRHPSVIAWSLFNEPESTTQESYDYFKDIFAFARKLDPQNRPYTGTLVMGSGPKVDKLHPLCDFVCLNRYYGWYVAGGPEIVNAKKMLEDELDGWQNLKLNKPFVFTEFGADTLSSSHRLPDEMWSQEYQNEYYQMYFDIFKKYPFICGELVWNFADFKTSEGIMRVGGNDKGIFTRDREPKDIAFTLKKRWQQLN
UniProt D2Q7B1, 1-668: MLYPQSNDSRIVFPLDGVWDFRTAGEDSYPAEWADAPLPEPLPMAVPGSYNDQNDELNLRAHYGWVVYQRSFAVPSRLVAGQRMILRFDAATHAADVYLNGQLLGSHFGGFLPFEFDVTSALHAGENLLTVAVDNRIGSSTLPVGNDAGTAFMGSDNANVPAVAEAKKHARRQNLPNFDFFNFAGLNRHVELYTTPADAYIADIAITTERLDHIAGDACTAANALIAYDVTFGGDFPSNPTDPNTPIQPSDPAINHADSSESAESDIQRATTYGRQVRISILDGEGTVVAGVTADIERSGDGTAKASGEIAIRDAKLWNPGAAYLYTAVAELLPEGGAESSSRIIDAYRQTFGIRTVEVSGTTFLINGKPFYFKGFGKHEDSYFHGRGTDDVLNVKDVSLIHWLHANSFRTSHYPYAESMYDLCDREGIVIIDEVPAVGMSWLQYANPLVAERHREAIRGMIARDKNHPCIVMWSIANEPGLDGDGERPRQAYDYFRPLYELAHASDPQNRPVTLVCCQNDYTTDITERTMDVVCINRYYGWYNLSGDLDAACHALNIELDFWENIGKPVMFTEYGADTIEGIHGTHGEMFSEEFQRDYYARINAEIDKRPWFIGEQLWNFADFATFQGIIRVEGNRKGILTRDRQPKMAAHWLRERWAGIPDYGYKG

In assay [1] the target is EcGUS (Escherichia coli GUS) (Escherichia coli, UniProt P05804). Put plainly: GUS inhibition assay, hydrolysis of 4-methylumbelliferyl-β-glucuronide, EcGUS. Particulars: ratio of Ki HsGUS / EcGUS. The class given is biochemical.
Assay [2] addresses LgGUS (Lactobacillus gasseri GUS) (Lactobacillus gasseri, UniProt Q9AHJ8). Put plainly: GUS inhibition assay, hydrolysis of 4-methylumbelliferyl-β-glucuronide, LgGUS. The class given is biochemical. The conditions noted are these: more potent than for HsGUS.
Assay [3] deals with BdGUS (Bifidobacterium dentium GUS) (Bifidobacterium dentium, UniProt D2Q7B1). The conditions noted are these: more potent than for HsGUS.

Regarding `CCCCCC[C@@H]1NC[C@@H](O)[C@H](O)[C@H]1C(=O)O`, the “selectivity for EcGUS over HsGUS” value in assay [1] was found to be 1770 fold.

In the case of `CCCCCCCCC[C@@H]1NC[C@@H](O)[C@H](O)[C@H]1C(=O)O` [Inhibitor 4, C6-nonyl UIFG], in assay [2], the “selectivity for LgGUS over HsGUS” value stood at 390 fold. Further, in assay [3], the “selectivity for BdGUS over HsGUS” value is recorded as 240 fold. The “selectivity for EcGUS over HsGUS” value in assay [1] is recorded as 23,300 fold.
